# PubChem BioAssay AID1203 (The Scripps Research Institute Molecular Screening Center, 2008)
# This is a selection; strong and weak results do not stand in their true shares. Active and inactive are the calls of the source.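 The calls were made as follows: active = activation above the mean across all tested compounds plus 3 SD, cutoff set per campaign (cut at about 5.5% in these data); inactive = the rest.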
# Test: Hsp70 transcriptional activators, primary screen, cell-based, HeLa, Hsp70 promoter luciferase, luminescence, 10 µM (AID 1203);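 also: 100% = MG132 at 30 µM as the positive control and 0% = DMSO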
# Conditions: HeLa Hsp70 promoter luciferase reporter, at 10 µM, stronger effect = higher value, scaled: vehicle 0, proteasome-inhibitor control 100%
row,Structure (SMILES),activation
1,O=C(NC(Sc1ccncn1)C(Cl)(Cl)Cl)c1ccccc1 (stereo not given),inactive: 0.11%
2,Cc1c2non([O-])c-2c(C)[n+](=O)[n+]1[O-],inactive: -0.02%
3,Oc1ccccc1CNc1ccccn1,inactive: 0.34%
4,CC(C)CC(=O)NC(Sc1ccc(Cl)cc1)C(Cl)(Cl)Cl (stereo not given),inactive: -0.11%
5,Cc1ccc(N/C(=N/P(=O)(N2CCOCC2)N2CCOCC2)N2CCOCC2)cc1,inactive: -0.27%
6,NC(=O)c1cc([N+](=O)[O-])cc([N+](=O)[O-])c1N,inactive: -0.27%
7,CN1CCCC(OC(=O)C(c2ccccc2)c2ccccc2)C1 (stereo not given),inactive: -0.48%
8,Clc1ccc(Cl)c(NC2=NCC(CBr)S2)c1 (stereo not given),inactive: -0.26%
9,COc1ccccc1OP(=O)(Nc1ccc(C)cn1)Oc1ccccc1OC,inactive: -0.07%
10,CCN(N=Nc1nonc1N)c1nonc1N,inactive: -0.24%
11,Cc1cc(SC(NC(=O)c2ccc(F)cc2)C(Cl)(Cl)Cl)ncn1 (stereo not given),inactive: -0.28%
12,CCOP(=O)(Nc1ccccc1)OCC,inactive: -0.23%
13,O=[N+]([O-])c1ncn(CCn2ncnc2[N+](=O)[O-])n1,inactive: 0.45%
14,CCN(/C(=N/P(=O)(N1CCOCC1)N1CCOCC1)N1CCOCC1)c1ccc(OC)cc1,inactive: -0.2%
15,CC1CCN(C(=O)Oc2c(Cl)cc(Cl)c3cccnc23)CC1,inactive: 0.07%
16,CN(C)C(=O)OCCc1n(C)cc[n+]1C,inactive: -0.33%
17,CC(C)=N/N=C(\N)N[N+](=O)[O-],inactive: -0.45%
18,COc1ccc(C2=NCC(CBr)S2)cc1 (stereo not given),inactive: -0.13%
19,O=[N+]([O-])c1cc([N+](=O)[O-])c(CCNc2ccccc2)c([N+](=O)[O-])c1,inactive: -0.33%
20,CCc1nc2c(n1)c1c(non1O)c1c2no[n+]1[O-],inactive: 0.67%
21,Cc1ccc(NP(=O)(Oc2ccccc2)Oc2ccccc2)nc1,inactive: 0.18%
22,CC(=O)N1C2C3N(C(C)=O)C1C1N(C(C)=O)C(C(N1C(C)=O)N3C(C)=O)N2C(C)=O,inactive: 0.06%
23,O=[N+]([O-])c1cccc2n[nH]nc12,inactive: 0.06%
24,O=P(Nc1nccs1)(c1ccccc1)c1ccccc1,inactive: -0.45%
25,CC(C)C(=O)NC(Sc1ccccc1)C(Cl)(Cl)Cl (stereo not given),inactive: -0.31%
26,c1nnnn1CCn1cnnn1,inactive: -0.27%
27,CC(=O)NC(SC(=S)N(C)C)C(Cl)(Cl)Cl (stereo not given),inactive: 0.32%

row,Structure (SMILES),activation
1,O=C(OC1CN2CCC1CC2)c1cccc(Cl)c1 (stereo not given),inactive: -0.49%
2,C(Cc1nn[nH]n1)Cc1nn[nH]n1,inactive: -0.12%
3,O=P(Nc1ccccn1)(c1ccc(Br)cc1)c1ccc(Br)cc1,inactive: -0.24%
4,CCC(=O)N1C2C3N(C(=O)CC)C1C1N(C(=O)CC)C(C(N1C(=O)CC)N3C(=O)CC)N2C(=O)CC,inactive: 0.01%
5,CC(=O)NC(SC(=S)N(CC(C)C)CC(C)C)C(Cl)(Cl)Cl (stereo not given),inactive: -0.35%
6,Cc1ccc(OP(=O)(Nc2ccccn2)Oc2ccc(C)cc2)cc1,inactive: -0.32%
7,COC(=O)c1cc2c(s1)N=C(c1ccccc1)N(C)P2(=O)N1CCOCC1 (stereo not given),inactive: -0.53%
8,O=c1c2cc([N+](=O)[O-])ccc2[nH]c2c([N+](=O)[O-])cc([N+](=O)[O-])cc12,inactive: -0.42%
9,CCOC(=O)NC(Sc1ccccc1)C(Cl)(Cl)Cl (stereo not given),inactive: -0.35%
10,c1ccc(-c2nn[nH]n2)c(-c2nn[nH]n2)c1,inactive: -0.14%
11,O=C(NC1CCS(=O)(=O)C1)NP(=S)(Oc1ccccc1)Oc1ccccc1 (stereo not given),inactive: 0%
12,CCNC(=S)/N=C(\N)N[N+](=O)[O-],inactive: 0.8%
13,CC(=O)Nc1ccc(Oc2c([N+](=O)[O-])cc([N+](=O)[O-])cc2[N+](=O)[O-])cc1,inactive: -0.17%
14,CCOc1ccc(C2=NCC(CBr)S2)cc1 (stereo not given),inactive: -0.2%
15,O=P1(Nc2nc3ccc(Cl)cc3s2)COc2ccccc2O1 (stereo not given),inactive: -0.29%
16,CC(C)(C)C(=O)NC(Sc1ccccc1)C(Cl)(Cl)Cl (stereo not given),inactive: -0.08%
17,Cc1ccc(NCCc2c([N+](=O)[O-])cc([N+](=O)[O-])cc2[N+](=O)[O-])cc1,inactive: 0.02%
18,CCOP(=O)(Nc1cccc2ccccc12)OCC,inactive: -0.43%
19,COc1cc(C2NCCC3(OCCO3)C2(C)C)cc(OC)c1OC (stereo not given),inactive: -0.14%
20,COc1cc(C(=O)NCC2(N3CCOCC3)CCCCC2)cc(Cl)c1OC(C)C,inactive: 0.15%
21,Cc1cccc(OCC(=O)OC2CN3CCC2CC3)c1 (stereo not given),inactive: -0.16%
22,CCOP1(=S)c2c(C)nn(CCC#N)c2N=C(c2ccc(F)cc2)N1C (stereo not given),inactive: -0.3%
23,O=[N+]([O-])c1ccc2c(c1)nnn2O,inactive: -0.04%
24,O=P(Nc1nccs1)(Oc1ccccc1)Oc1ccccc1,inactive: 0.39%
25,O=P(Nc1nccs1)(c1ccccc1)c1nc2ccccc2s1 (stereo not given),inactive: 0.81%
26,CCOP1(=S)c2c(C)nn(CCC#N)c2N=C(c2ccccc2F)N1C (stereo not given),inactive: -0.06%
27,O=P1(Nc2ncccn2)COc2ccccc2OC1,inactive: -0.13%

row,Structure (SMILES),activation
1,Cc1ccc(OCC(=O)OC2CN3CCC2CC3)cc1 (stereo not given),inactive: -0.32%
2,O=P1(Nc2ccc(Br)cn2)COc2ccccc2OC1,inactive: -0.59%
3,CC1CCC(C(C)C)C(OP(=O)(Nc2ccccn2)c2ccccc2)C1 (stereo not given),inactive: -0.31%
4,Cc1nn(-c2ccccc2)c2c1P(=O)(N1CCOCC1)N(C)C(c1ccccc1)=N2 (stereo not given),inactive: -0.27%
5,CN(C)C1(CNC(=O)c2ccc(S(C)(=O)=O)cc2)CCCCC1,inactive: 0.05%
6,CN(C(=O)Cc1ccc(Cl)c(Cl)c1)[C@@H]1CCCC[C@H]1N1CCCC1,inactive: 0.5%
7,CC(C)/C=N\N=C(\N)N[N+](=O)[O-],inactive: -0.16%
8,CC1(CBr)Cn2c(nc3ccccc3c2=O)S1 (stereo not given),inactive: -0.28%
9,O=P1(Nc2ccccn2)COc2ccccc2OC1,inactive: -0.26%
10,Clc1n[nH]nc1-c1nn[nH][15n]1,inactive: 0.23%
11,CCC(C)N(CC(C)C)C(=S)SC(NC(C)=O)C(Cl)(Cl)Cl (stereo not given),inactive: -0.24%
12,COP1(=S)c2c(C)nn(CCC#N)c2N=C(c2ccc(F)cc2)N1C (stereo not given),inactive: 0.02%
13,O=C(COc1ccccc1)OC1CN2CCC1CC2 (stereo not given),inactive: -0.19%
14,Cc1cc(SC(NC=O)C(Cl)(Cl)Cl)ncn1 (stereo not given),inactive: -0.41%
15,O=P(Nc1ccccn1)(c1cccc2ccccc12)c1cccc2ccccc12,inactive: -0.36%
16,Cc1cc(SC(NC(=O)c2ccccc2)C(Cl)(Cl)Cl)nc(C(C)C)n1 (stereo not given),inactive: -0.12%
17,ClCCSc1nnc(-c2cccnc2)o1,inactive: -0.17%
18,O=[N+]([O-])c1cc([N+](=O)[O-])c(-c2ccn[nH]2)s1,inactive: -0.3%
19,CC(C)NC(=O)NP(=O)(Oc1ccccc1)Oc1ccccc1,inactive: -0.07%
20,CCN(CC)C(=S)SC(NC=O)C(Cl)(Cl)Cl (stereo not given),inactive: -0.37%
21,Cc1ccc2nc3c(c(C)c2c1)CC(C(Cl)Cl)S3 (stereo not given),inactive: -0.11%
22,COc1ccc(N/C(=N/P(=O)(N2CCOCC2)N2CCOCC2)N2CCOCC2)cc1,inactive: 0.12%
23,Cc1c2c(nc3ccccc13)SC(C(Cl)Cl)C2 (stereo not given),inactive: -0.35%
24,Cc1cc(=O)[nH]c(N[N+](=O)[O-])n1,inactive: -0.19%
25,O=C(OC1CN2CCC1CC2)C12CC3CC(CC(C3)C1)C2 (stereo not given),inactive: 0.05%
26,COc1ccc2nc(NP(=O)(c3ccccc3)c3ccccc3)sc2c1,inactive: -0.65%
